Assay results as given in a protein production outcome set (Wang et al. 2014).

Experiment: label from the status in PepcDB records

Row | Sequence | protein production
1 | SEEQPQMQDADEPADSGGEGRAGGPPQVAGAQAACSEDRMTLLLRLRAQTKQQLLEYKSMVDASEEKTPEQIMQEKQIEAKIEDLENEIEEVKVAFEIKKLALDRMRLSTALKKNLEKISRQSSVLMDNMKHLLELNKLIMKSQQESWDLEEKLLDIRKKRLQLKQASESKLLEIQTEKNKQKIDLDSMENSERIKIIRQNLQMEIKITTVIQHVFQNLILGSKVNWAEDPALKEIVLQLEKNVDMM | failed
2 | MPVKRSLKLDGLLEENSFDPSKITRKKSVITYSPTTGTCQMSLFASPTSSEEQKHRNGLSNEKRKKLNHPSLTESKESTTKDNDEFMMLLSKVEKLSEEIMEIMQNLSSIQALEGSRELENLIGISCASHFLKREMQKTKELMTKVNKQKLFEKSTGLPHKASRHLDSYEFLKAILN | failed
